pIC50: −log10 of the molar value.
Target: N-terminally truncated recombinant hDHODH enzyme (Homo sapiens, UniProt Q02127)
Assay: Human DHODH inhibition assay
Details: read-out: IC50 range

Chains of the proteins cited; added tags and fusions are not shown.
UniProt Q02127, whole entry: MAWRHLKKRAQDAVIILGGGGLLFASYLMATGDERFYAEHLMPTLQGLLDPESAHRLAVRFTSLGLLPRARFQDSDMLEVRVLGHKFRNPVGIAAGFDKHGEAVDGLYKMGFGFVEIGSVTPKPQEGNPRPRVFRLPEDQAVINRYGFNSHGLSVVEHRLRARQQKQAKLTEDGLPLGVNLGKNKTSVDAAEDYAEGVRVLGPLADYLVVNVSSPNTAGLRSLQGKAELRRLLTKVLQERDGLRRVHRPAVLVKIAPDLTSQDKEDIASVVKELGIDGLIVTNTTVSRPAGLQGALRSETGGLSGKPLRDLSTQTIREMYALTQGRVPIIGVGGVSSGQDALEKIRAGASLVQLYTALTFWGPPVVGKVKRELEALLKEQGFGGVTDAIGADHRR

In the case of `[2H]C([2H])([2H])C([2H])([2H])C([2H])([2H])C([2H])([2H])Oc1cccc(-c2cc(F)c(NC(=O)C3=C(C(=O)O)CCC3)c(F)c2)c1`, the pIC50 was > 7.00.

From patent publication US20240199535A1, “DEUTERATED DHODH INHIBITORS” (priority 2021, published 2024)
